From PubChem BioAssay AID811 (The Scripps Research Institute Molecular Screening Center, 2007) come the findings set out here.

The chains behind the UniProt entries cited, without tags or fusion partners.
UniProt O00206, whole entry: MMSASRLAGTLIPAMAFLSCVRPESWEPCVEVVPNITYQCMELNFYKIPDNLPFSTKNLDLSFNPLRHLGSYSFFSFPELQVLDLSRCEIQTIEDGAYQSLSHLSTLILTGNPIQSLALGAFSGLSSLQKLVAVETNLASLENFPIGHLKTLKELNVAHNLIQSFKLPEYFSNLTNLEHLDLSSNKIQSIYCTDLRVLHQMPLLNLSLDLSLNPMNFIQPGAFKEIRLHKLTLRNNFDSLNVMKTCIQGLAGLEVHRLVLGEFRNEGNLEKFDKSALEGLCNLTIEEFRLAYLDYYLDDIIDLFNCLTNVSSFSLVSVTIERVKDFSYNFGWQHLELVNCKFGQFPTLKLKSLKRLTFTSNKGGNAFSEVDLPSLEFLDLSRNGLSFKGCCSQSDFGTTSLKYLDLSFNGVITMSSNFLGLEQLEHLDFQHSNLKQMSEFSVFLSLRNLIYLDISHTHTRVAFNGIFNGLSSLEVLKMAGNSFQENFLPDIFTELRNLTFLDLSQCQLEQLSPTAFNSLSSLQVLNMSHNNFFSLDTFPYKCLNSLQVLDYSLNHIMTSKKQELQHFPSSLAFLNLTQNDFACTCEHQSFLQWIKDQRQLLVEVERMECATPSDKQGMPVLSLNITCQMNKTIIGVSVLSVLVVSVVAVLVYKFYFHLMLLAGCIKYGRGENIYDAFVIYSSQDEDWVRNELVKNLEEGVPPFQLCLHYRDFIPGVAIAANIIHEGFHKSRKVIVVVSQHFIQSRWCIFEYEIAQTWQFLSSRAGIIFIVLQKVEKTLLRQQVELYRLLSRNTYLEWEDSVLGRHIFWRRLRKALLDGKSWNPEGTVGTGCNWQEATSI

SMILES strings stand for the structures. The entries are a selection whose mix differs from that of the whole data set. Activity calls are given as the source filed them. No stated cut-off is given here; in the data, active means inhibition above about 45%; inactive means the rest.

The target of this assay is Toll-like receptor 4 (Homo sapiens) (UniProt O00206). In words: inhibitors of human TLR4-MyD88 binding (AID 811). Particulars: Cell-based TLR4-MyD88 binding inhibition assay; at 10 µM; hits give high values.
Regarding `Cc1ccccc1NC1CC(C)(C)NC(C)(C)C1`, the inhibition is inactive: 2.33%.
